Values of other authors in US6320024A, “Method for design of substances that enhance memory and improve the quality of life” (priority 1999, dated 2001).

System: CD-1 male mice
Conditions: post-training ICV in mice; references 1 and 12; cited from earlier work

Substance | amnestic effect on retention of FAAT (literature)
Val His His Gln Lys Leu Val Phe Phe (VHHQKLVFF) [β-(12-20)] | amnestic
Val His His Gln Lys Leu Val Phe Phe Ala Glu Asp Val Gly Ser Asn Lys (VHHQKLVFFAEDVGSNK) [β-(12-28)] | amnestic
